Legend:
Mu-type opioid receptor [1] = target: T1, Mu-type opioid receptor (Homo sapiens, UniProt P35372)
[2] = target: T2, Delta-type opioid receptor (Homo sapiens, UniProt P41143)
[3] = target: T3, Kappa-type opioid receptor (Homo sapiens, UniProt P41145)
[4] = target: T2, Delta-type opioid receptor; remark: listed apart in the source
Mu-type opioid receptor [5] = target: T1, Mu-type opioid receptor; remark: listed apart in the source
[6] = target: T3, Kappa-type opioid receptor; details: sf9

SMILES | Ki (Mu-type opioid receptor [1]) | Ki [2] | EC50 [3] | EC50 [4] | EC50 (Mu-type opioid receptor [5]) | Ki [6]
CO[C@]12CC[C@@]3(C[C@@H]1COCc1ccccc1)[C@H]1Cc4ccc(C(=O)O)c5c4[C@@]3(CCN1CC1CC1)[C@H]2O5 | 1100 nM | 3000 nM | 288 nM |  |  | 
COc1ccc2c3c1O[C@H]1[C@@]4(OC)CC[C@@]5(C[C@@H]4CSc4nc(C)ns4)[C@@H](C2)N(CC2CC2)CC[C@]315 | 116 nM |  | 890 nM | 640 nM |  | 
COc1ccc2c3c1O[C@H]1[C@@]4(OC)CC[C@@]5(C[C@@H]4COCC(N)=O)[C@@H](C2)N(CC2CC2)CC[C@]315 | 210 nM |  | 1440 nM |  | 1130 nM | 
COc1ccc2c3c1O[C@H]1[C@@]4(OC)CC[C@@]5(C[C@@H]4COCc4ccccc4)[C@@H](C2)N(CCC(N)=O)CC[C@]315 | 383 nM | 1480 nM | 51.9 nM |  | 1510 nM | 
COc1ccc2c3c1O[C@H]1[C@@]4(OC)CC[C@@]5(C[C@@H]4COC(=O)[C@H](C)N)[C@@H](C2)N(CC2CC2)CC[C@]315 | 148 nM | 1700 nM | 335 nM |  |  | 6.63 nM
COc1ccc2c3c1O[C@H]1[C@@]4(OC)CC[C@@]5([C@@H](CC#N)[C@@H]4COCc4ccccc4)[C@@H](C2)N(CC2CC2)CC[C@]315 | 60.5 nM |  | 824 nM |  |  | 6.75 nM
CO[C@]12CC[C@@]3(C[C@@H]1COCc1cccc(OCC(=O)O)c1)[C@H]1Cc4ccc(O)c5c4[C@@]3(CCN1CC1CC1)[C@H]2O5 |  |  | 28.5 nM |  |  | 
COc1ccc2c3c1O[C@H]1[C@@]4(OC)CC[C@@]5(C[C@@H]4COCc4cccc(C(=N)N)c4)[C@@H](C2)N(CC2CC2)CC[C@]315 | 35.8 nM |  | 135 nM |  |  | 
COc1ccc2c3c1O[C@H]1[C@@]4(OC)CC[C@@]5(C[C@@H]4COCc4ccccc4)[C@@H](C2)N(CC(N)=O)CC[C@]315 |  | 10600 nM |  |  | 874 nM | 
COc1ccc2c3c1O[C@H]1[C@@]4(OC)CC[C@@]5(C[C@@H]4CNCC(N)=O)[C@@H](C2)N(CC2CC2)CC[C@]315 |  |  | 1250 nM |  | 581 nM | 15.8 nM
COc1ccc2c3c1O[C@H]1[C@@]4(OC)CC[C@@]5(C[C@@H]4CSc4nc6ccccc6s4)[C@@H](C2)N(C)CC[C@]315 | 149 nM |  | 577 nM | 556 nM | 503 nM | 
COc1ccc2c3c1O[C@H]1[C@@]4(OC)CC[C@@]5(C[C@@H]4COCc4ccccc4)[C@@H](C2)N(CCC(=O)O)CC[C@]315 | 850 nM | 17000 nM | 513 nM |  | 1400 nM | 64.5 nM
CO[C@]12CC[C@@]3(C[C@@H]1COCc1ccccc1)[C@H]1Cc4ccc(OCC(=O)O)c5c4[C@@]3(CCN1CC1CC1)[C@H]2O5 |  |  | 204 nM |  | 336 nM | 
COCCOCCOCCOC[C@H]1C[C@@]23CC[C@]1(OC)[C@@H]1Oc4c(OC)ccc5c4[C@@]12CCN(CC1CC1)[C@@H]3C5 | 51.1 nM | 3020 nM | 664 nM |  |  | 37 nM
COc1ccc2c3c1O[C@H]1[C@@]4(OC)CC[C@@]5(C[C@@H]4COCc4ccccc4)[C@@H](C2)N(Cc2nn[nH]n2)CC[C@]315 | 986 nM |  |  |  | 1360 nM | 
COc1ccc2c3c1O[C@H]1[C@@]4(OC)CC[C@@]5(C[C@@H]4COC(=O)[C@@H](N)CO)[C@@H](C2)N(CC2CC2)CC[C@]315 | 362 nM |  | 603 nM |  |  | 
COc1ccc2c3c1O[C@H]1[C@@]4(OC)CC[C@@]5(C[C@@H]4COCc4ccc(N(S(C)(=O)=O)S(C)(=O)=O)cc4)[C@@H](C2)N(CC2CC2)CC[C@]315 |  |  | 277 nM |  |  | 20.6 nM
COc1ccc2c3c1O[C@H]1[C@@]4(OC)CC[C@@]5(C[C@@H]4COCc4ccc(CC(=O)O)cc4)[C@@H](C2)N(CC2CC2)CC[C@]315 | 1010 nM |  | 901 nM |  |  | 517 nM
COCCOCCOCCOCCOCCOc1ccc(COC[C@H]2C[C@@]34CC[C@]2(OC)[C@@H]2Oc5c(OC)ccc6c5[C@@]23CCN(CC2CC2)[C@@H]4C6)cc1 | 135 nM | 1000 nM |  |  |  | 42.5 nM
COc1ccc2c3c1O[C@H]1[C@@]4(OC)CC[C@@]5(C[C@@H]4COCc4ccc(C(O)CO)cc4)[C@@H](C2)N(CC2CC2)CC[C@]315 (some centres undefined) | 54.8 nM |  | 156 nM |  |  | 
COc1ccc2c3c1O[C@H]1[C@@]4(OC)CC[C@@]5(C[C@@H]4COCc4cccc(NCC(=O)O)c4)[C@@H](C2)N(CC2CC2)CC[C@]315 | 83.3 nM | 119 nM |  | 45.7 nM |  | 
COc1ccc2c3c1O[C@H]1[C@@]4(OC)CC[C@@]5(C[C@@H]4CSc4nc(C)ns4)[C@@H](C2)N(C)CC[C@]315 | 1540 nM | 9900 nM |  |  |  | 400 nM
CO[C@]12CC[C@@]3(C[C@@H]1COCc1ccccc1)[C@H]1Cc4ccc(Br)c5c4[C@@]3(CCN1CC1CC1)[C@H]2O5 | 49.3 nM |  |  | 135 nM | 267 nM | 
COc1ccc2c3c1O[C@H]1[C@@]4(OC)CC[C@@]5(C[C@@H]4COCc4ccc(Cc6nn[nH]n6)cc4)[C@@H](C2)N(CC2CC2)CC[C@]315 | 1770 nM |  |  |  |  | 181 nM

SMILES | Ki (Mu-type opioid receptor [1]) | Ki [2] | EC50 [3] | EC50 [4] | EC50 (Mu-type opioid receptor [5]) | Ki [6]
COc1ccc2c3c1O[C@H]1[C@@]4(OC)CC[C@@]5([C@@H](CCC(=O)O)[C@@H]4COCc4ccccc4)[C@@H](C2)N(CC2CC2)CC[C@]315 | 927 nM |  | 1900 nM |  |  | 
CO[C@]12CC[C@@]3(C[C@@H]1COCc1ccccc1)[C@H]1Cc4ccc(-c5nn[nH]n5)c5c4[C@@]3(CCN1CC1CC1)[C@H]2O5 | 339 nM |  |  |  | 552 nM | 
CO[C@]12CC[C@@]3(C[C@@H]1COCc1cccc(NC(C)=O)c1)[C@H]1Cc4ccc(O)c5c4[C@@]3(CCN1CC1CC1)[C@H]2O5 |  |  | 0.2 nM |  |  | 0.05 nM
COc1ccc2c3c1O[C@H]1[C@@]4(OC)CC[C@@]5(C[C@@H]4COCc4ccccc4)[C@@H](C2)N(CC(=O)O)CC[C@]315 | 312 nM |  |  |  | 982 nM | 
CO[C@]12CC[C@@]3(C[C@@H]1COCc1ccccc1)[C@H]1Cc4ccc(NC(C)=O)c5c4[C@@]3(CCN1C)[C@H]2O5 | 133 nM |  | 951 nM |  | 694 nM | 15.2 nM
CO[C@]12CC[C@@]3(C[C@@H]1COCc1ccccc1)[C@H]1Cc4ccc(CC(O)CO)c5c4[C@@]3(CCN1CC1CC1)[C@H]2O5 (some centres undefined) | 261 nM |  | 148 nM |  |  | 
CO[C@]12CC[C@@]3(C[C@@H]1COCc1ccccc1)[C@H]1Cc4ccc(C#N)c5c4[C@@]3(CCN1C)[C@H]2O5 | 147 nM | 3710 nM |  |  | 252 nM | 
COc1ccc2c3c1O[C@H]1[C@@]4(OC)CC[C@@]5(C[C@@H]4COCc4ccc(NC(C)=O)cc4)[C@@H](C2)N(CC2CC2)CC[C@]315 | 156 nM |  | 589 nM |  |  | 38.4 nM
COc1ccc2c3c1O[C@H]1[C@@]4(OC)CC[C@@]5(C[C@@H]4COCc4cccc(CC(=O)O)c4)[C@@H](C2)N(CC2CC2)CC[C@]315 |  |  | 625 nM |  |  | 
CO[C@]12CC[C@@]3(C[C@@H]1COCc1ccccc1)[C@H]1Cc4ccc(C#N)c5c4[C@@]3(CCN1CC1CC1)[C@H]2O5 | 82.5 nM |  | 27.7 nM |  | 215 nM | 0.07 nM
COCCOCCOCCOc1ccc(COC[C@H]2C[C@@]34CC[C@]2(OC)[C@@H]2Oc5c(OC)ccc6c5[C@@]23CCN(CC2CC2)[C@@H]4C6)cc1 | 87.9 nM | 1980 nM | 1640 nM |  |  | 47.3 nM
COc1ccc2c3c1O[C@H]1[C@@]4(OC)CC[C@@]5(C[C@@H]4CNCC(=O)O)[C@@H](C2)N(CC2CC2)CC[C@]315 | 349 nM |  | 964 nM |  | 218 nM | 51.4 nM
CO[C@]12CC[C@@]3(C[C@@H]1COCc1ccc(C(N)=O)cc1)[C@H]1Cc4ccc(O)c5c4[C@@]3(CCN1CC1CC1)[C@H]2O5 |  |  |  |  |  | 0.014 nM
CO[C@]12CC[C@@]3(C[C@@H]1COCc1ccccc1)[C@H]1Cc4ccc(C(=O)O)c5c4[C@@]3(CCN1C)[C@H]2O5 | 54.2 nM | 13400 nM | 156 nM |  | 632 nM | 
COc1ccc2c3c1O[C@H]1[C@@]4(OC)CC[C@@]5(C[C@@H]4CSc4nc6ccccc6s4)[C@@H](C2)N(CC2CC2)CC[C@]315 | 50 nM | 468 nM | 63.8 nM | 211 nM |  | 
COc1ccc2c3c1O[C@H]1[C@@]4(OC)CC[C@@]5(C[C@@H]4COC(=O)[C@@H](N)CCC(N)=O)[C@@H](C2)N(CC2CC2)CC[C@]315 | 170 nM |  |  |  |  | 12.7 nM
COc1ccc2c3c1O[C@H]1[C@@]4(OC)CC[C@@]5(C[C@@H]4COC(=O)[C@@H](N)C(C)O)[C@@H](C2)N(CC2CC2)CC[C@]315 (some centres undefined) | 60.1 nM |  | 47.6 nM |  | 79.3 nM | 
COc1ccc2c3c1O[C@H]1[C@@]4(OC)CC[C@@]5(C[C@@H]4COCC(O)CO)[C@@H](C2)N(CC2CC2)CC[C@]315 (some centres undefined) |  | 3250 nM | 517 nM |  |  | 
COCCOCCOCCOCCOCCOC[C@H]1C[C@@]23CC[C@]1(OC)[C@@H]1Oc4c(OC)ccc5c4[C@@]12CCN(CC1CC1)[C@@H]3C5 | 216 nM | 5530 nM | 817 nM |  |  | 
COc1ccc2c3c1O[C@H]1[C@@]4(OC)CC[C@@]5(C[C@@H]4COCc4ccc(C(=O)NCC(=O)O)cc4)[C@@H](C2)N(CC2CC2)CC[C@]315 | 308 nM |  |  |  | 1290 nM | 435 nM
COc1ccc2c3c1O[C@H]1[C@@]4(OC)CC[C@@]5(C[C@@H]4CSc4nncs4)[C@@H](C2)N(CC2CC2)CC[C@]315 | 188 nM | 1730 nM | 192 nM |  |  | 
CO[C@]12CC[C@@]3(C[C@@H]1COCc1ccccc1)[C@H]1Cc4ccc(C(O)CO)c5c4[C@@]3(CCN1CC1CC1)[C@H]2O5 (some centres undefined) | 154 nM |  | 462 nM |  | 860 nM | 
CO[C@]12CC[C@@]3(C[C@@H]1CNCc1ccccc1)[C@H]1Cc4ccc(O)c5c4[C@@]3(CCN1CC1CC1)[C@H]2O5 | 37.5 nM | 2430 nM | 108 nM | 431 nM |  | 
COC(=O)COc1cccc(COC[C@H]2C[C@@]34CC[C@]2(OC)[C@@H]2Oc5c(O)ccc6c5[C@@]23CCN(CC2CC2)[C@@H]4C6)c1 |  |  |  |  |  | 0.2 nM

— ChEMBL document CHEMBL3886452, “Buprenorphine analogs” (2015)
